Measurements reported in ChEMBL document CHEMBL1143029, “Heme oxygenase inhibition by 2-oxy-substituted 1-(1H-imidazol-1-yl)-4-phenylbutanes: effect of halogen substitution in the phenyl ring” (Bioorg Med Chem, 2007).

Columns and labels:
[1] = biological target: T1, Heme oxygenase 1 (Rattus norvegicus) (UniProt P06762); assay: Inhibition of Sprague-Dawley rat spleen microsome HO1 at 0.1 uM relative to control; type: microsomes
T1 sequence (whole entry): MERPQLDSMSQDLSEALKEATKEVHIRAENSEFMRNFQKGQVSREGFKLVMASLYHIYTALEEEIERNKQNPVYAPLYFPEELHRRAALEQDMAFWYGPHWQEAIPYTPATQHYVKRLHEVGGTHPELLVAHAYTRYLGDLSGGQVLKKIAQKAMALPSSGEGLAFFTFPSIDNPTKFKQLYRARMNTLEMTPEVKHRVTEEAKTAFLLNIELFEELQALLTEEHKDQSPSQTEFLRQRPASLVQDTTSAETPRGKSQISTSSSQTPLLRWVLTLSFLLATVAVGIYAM
Summary of the method: (§1)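 Spleen (HO-1) or brain (HO-2) microsomes from Sprague-Dawley rats, at 1 mg/mL protein in 100 mM phosphate buffer pH 7.4 with methemalbumin (heme–albumin) as substrate. Inhibitor hydrochloride pre-incubated 10 min at 37 °C, then 1 mM NADPH added for 15 min at 37 °C. Stopped by freezing on dry ice. CO formed measured by gas chromatography; activity given as percent of no-inhibitor control.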

[2] = biological target: T2, Heme oxygenase 2 (Rattus norvegicus) (UniProt P23711); assay: Inhibition of Sprague-Dawley rat brain microsome HO2 at 100 uM relative to control; summary of the method: as §1
T2 sequence (whole entry): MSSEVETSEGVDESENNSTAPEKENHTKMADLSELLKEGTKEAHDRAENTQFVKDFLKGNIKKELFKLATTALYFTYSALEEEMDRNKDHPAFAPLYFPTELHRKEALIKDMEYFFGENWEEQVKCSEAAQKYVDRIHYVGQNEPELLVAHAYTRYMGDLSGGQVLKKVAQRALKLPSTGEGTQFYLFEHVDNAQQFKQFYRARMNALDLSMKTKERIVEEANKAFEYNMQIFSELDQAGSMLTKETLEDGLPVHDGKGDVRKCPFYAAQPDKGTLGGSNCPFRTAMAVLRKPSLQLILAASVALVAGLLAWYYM

Rattus norvegicus = species: Rattus norvegicus; assay: Selectivity index, ratio of IC50 for Sprague-Dawley rat brain HO2 to IC50 for Sprague-Dawley rat spleen HO1; type: tissue-based
Summary of the method: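 Ratio of IC50(HO-2) to IC50(HO-1). HO-2 comes from Sprague-Dawley rat brain microsomes and HO-1 from spleen microsomes. Both were assayed identically: methemalbumin substrate, 10 min inhibitor pre-incubation at 37 °C, 15 min reaction with 1 mM NADPH, and CO measured by GC. Each IC50 was derived from sigmoidal dose–response fits of percent-control activity.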

[3] = biological target: T2, Heme oxygenase 2 (Rattus norvegicus); assay: Inhibition of Sprague-Dawley rat brain microsome HO2 at 0.1 uM relative to control; summary of the method: as §1
[4] = biological target: T1, Heme oxygenase 1 (Rattus norvegicus); conditions: Sprague-Dawley, Spleen, Microsome, 100 uM
Heme oxygenase 1 = biological target: T3, Heme oxygenase 1 (Rattus norvegicus, UniProt P06762); assay: Inhibition of Sprague-Dawley rat spleen microsome HO1; type: microsomes
T3 sequence (P06762 whole entry): T1 sequence (whole entry)

inhibition [1] | inhibition [2] | inhibition [3] | inhibition [4] | IC50 (Heme oxygenase 1) | Compound | Ratio IC50 (Rattus norvegicus)
27% | 60% | 10% | 80% |  | O=C(CCc1ccc(Cl)cc1)Cn1ccnc1 | 16.4
 |  |  | 80% |  | O=C(CCc1ccc(Br)cc1)Cn1ccnc1 | 9.2
 |  |  |  | 60 nM | OC(CCc1ccc(I)cc1)Cn1ccnc1 (stereo unspecified) | 

Second part, the compound before the results:

Compound | inhibition [1] | inhibition [2] | inhibition [3] | inhibition [4] | IC50 (Heme oxygenase 1) | Ratio IC50 (Rattus norvegicus)
OC(CCc1ccc(Br)cc1)Cn1ccnc1 (stereo unspecified) |  | 55% |  |  |  | 18.6
c1ccc(CCC2(Cn3ccnc3)OCCO2)cc1 |  |  |  |  |  | > 143
